# The list shows a part of the results, in another mix than the full data. Some tests of the compounds listed are not included; inactive here does not mean inactive elsewhere. Activity calls are given as the source filed them. Cut-off read from the data, not from the text of the source: active = activity change below about -80%; inconclusive = mostly about -51% to -80%; inactive = weaker than that.
# Biological target: RAC-alpha serine/threonine-protein kinase (Homo sapiens) (UniProt P31749)
# Assay: HTS Assay for Inhibitors of Akt Phophorylation: Primary Screen
# Details: Neuro2A IGF-stimulated pAkt S473 HTRF, 20 min; at 50 µM; stronger effect = lower value
# Text: The serine/threonine protein kinase Akt (protein kinase B) regulates various cellular processes, including cell survival, growth, proliferation, migration and differentiation. It has been well established that Akt is activated through two essential steps involving membrane translocation and phosphorylation. Cytosolic Akt is recruited to the plasma membrane via the interaction between the PH domain and membrane PIP3 produced by phosphoinositide-3 kinase (PI3K) upon growth factor receptor stimulation. The membrane-Akt interaction results in conformational changes of Akt, enabling its activation through phosphorylation at T308 in the kinase domain and at S473 in the C-terminal hydrophobic motif by PDK1 and mTOR-rictor complex (mTORC2), respectively. […]
# 3 uL of Neuro2A cell suspension in DMEM containing 0.5% FBS and […] antibiotics mix was plated in a white solid bottom tissue culture-treated 1536-well plate (Greiner Bio-One, Monroe, NC) at 4,500 cells per well and incubated overnight at 37 deg C. […] The assay plates were incubated for 24 hours at ambient temperature, and the HTRF fluorescence was measured using Envision plate reader (PerkinElmer) with excitation at 330nm, emission at 615nm (Eu(3)-Cryptate donor signal) and 665nm (d2 acceptor signal). The ratio of […] was calculated for each well.
# % is set by controls: 0 for no effect and ±100 for the full control effect.
row,SMILES,activity change
1,O=C(OC1CN2CCC1CC2)C(CO)(c1ccccc1)c1ccccc1 (configuration not stated),inactive: 16.1%
2,CC(C)N1C(=O)CC2(CCN(CCOC(=O)C(O)(c3ccccc3)c3ccccc3)CC2)C1=O,inactive: 1.76%
